# Data reported in PubChem BioAssay AID504615 (Sanford-Burnham Center for Chemical Genomics, 2011).
# Only a part is listed here, and it is no random draw. Activity calls are given as the source filed them.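 How the source made its calls: active means signal rise of 40% or more at 20 µM, treated as a fluorescence artifact; inactive means the rest.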
# Assay: detection-step artefacts after completed caspase reaction – biochemical, fluorescence, Rh110, 20 µM, artefact control for Apaf-1 inhibitor project, confirmation (AID 504615)
# Conditions: quenched caspase reaction, at 20 µM, active compounds read high
row,Compound,activation (fluorescence interference)
1,CCc1nc2c(n1)c1c(non1O)c1c2no[n+]1[O-],inactive: -2.81%
